The source of these data is patent US20240190874A1, “SMALL MOLECULE DEGRADERS OF ANDROGEN RECEPTOR” (THE REGENTS OF THE UNIVERSITY OF MICHIGAN, priority 2021, published 2024).

Protein sequences, listed by entry. Tags and fused reporters are not part of them.
UniProt P10275, whole entry: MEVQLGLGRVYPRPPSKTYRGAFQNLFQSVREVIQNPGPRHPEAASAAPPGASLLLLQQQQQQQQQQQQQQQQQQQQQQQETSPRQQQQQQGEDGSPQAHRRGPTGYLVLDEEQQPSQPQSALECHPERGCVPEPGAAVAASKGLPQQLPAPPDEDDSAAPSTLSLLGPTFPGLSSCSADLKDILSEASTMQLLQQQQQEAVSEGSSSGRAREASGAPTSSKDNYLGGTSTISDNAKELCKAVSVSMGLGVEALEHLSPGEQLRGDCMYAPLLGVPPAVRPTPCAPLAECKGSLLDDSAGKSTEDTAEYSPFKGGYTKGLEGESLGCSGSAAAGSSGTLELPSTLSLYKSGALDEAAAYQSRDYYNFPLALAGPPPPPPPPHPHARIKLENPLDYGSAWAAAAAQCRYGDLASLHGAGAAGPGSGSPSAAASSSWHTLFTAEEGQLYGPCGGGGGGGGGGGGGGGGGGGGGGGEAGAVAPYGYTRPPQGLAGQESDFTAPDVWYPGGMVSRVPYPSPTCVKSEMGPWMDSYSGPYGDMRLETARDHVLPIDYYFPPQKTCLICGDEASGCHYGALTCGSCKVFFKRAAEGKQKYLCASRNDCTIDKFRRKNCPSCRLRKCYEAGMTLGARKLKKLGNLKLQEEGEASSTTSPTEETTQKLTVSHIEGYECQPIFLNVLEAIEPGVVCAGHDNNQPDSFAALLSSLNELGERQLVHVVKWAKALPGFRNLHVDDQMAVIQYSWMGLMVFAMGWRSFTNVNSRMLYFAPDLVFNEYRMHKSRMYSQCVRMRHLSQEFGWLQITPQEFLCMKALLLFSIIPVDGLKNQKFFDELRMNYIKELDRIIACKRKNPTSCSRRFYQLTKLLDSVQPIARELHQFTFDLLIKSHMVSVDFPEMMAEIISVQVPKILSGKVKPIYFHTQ

The DC50 is the midpoint of the concentration-degradation curve.

For this assay, the target named is AR (Homo sapiens, UniProt P10275). The assay is described as follows: Degradation of AR in VCaP cells. Here is the method:
Biological Assays. LNCaP and VCaP cells used were purchased from American Type Culture Collection (ATCC). LNCaP were grown in RPMI 1640 (Invitrogen) and VCaP cells were grown in DMEM with Glutamax (Invitrogen). All of the cells were supplemented with 10% fetal bovine serum (Invitrogen) at 37° C. in a humidified 5% CO2 incubator.

For the compound `C[C@H]1CC2(CCN(c3ccc(C4CCN(CC(=O)N5Cc6cc7c(cc6C5)C(=O)N(C5CCC(=O)NC5=O)C7=O)CC4)cc3)CC2)CN1c1ccc(C#N)c(Cl)c1` (some centres unmarked), the “Degradation of AR in VCaP cells Dmax” value is recorded as “A (A = >90%)”. Besides, for the setting “read-out: Degradation of AR in VCaP cells DC50”, the DC50 was less than 100 nM.
